Values quoted from earlier work in PMC2751796 (Pharmacology & therapeutics, 2009).
Several values for one entry are separate records, joined by “and”; a condition that tells them apart may be missing. Equal values may be shown once.

Experiments:
P-gp [1] = conditions: mouse, in vivo; cited from earlier work
P-gp [2] = conditions: mouse, in vivo; cited from earlier work; remark: listed apart in the source

In the case of `Cc1nc2n(c(=O)c1CCN1CCC(c3noc4cc(F)ccc34)CC1)CCCC2` [Risperidone], the “Fold change in brain uptake ratio in inhibitor-treated vs. control mice” value (P-gp [1]) is given as 1, AUC fold and 1.4, AUC fold, the “Fold change in brain uptake ratio in P-gp KO vs. control mice” value (P-gp [2]) is given as 10.3 (10.5), AUC fold and 13.6 (14.1), Conc. fold and the “Fold change in brain uptake ratio in P-gp KO vs. control mice (value corrected for drug in vasculature)” value (P-gp [2]) is given as 10.3 (10.5), AUC fold and 13.6 (14.1), Conc. fold.
